Measurements as given in PubChem BioAssay AID435005 (Broad Institute, 2010).
The entries are a selection whose mix differs from that of the whole data set. Activity calls are given as the source filed them.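 How the source made its calls: active means Every replicate reaches about 75%, or at least half do and their mean reaches it too (limit read from the data); inconclusive means At least half of replicates reach the limit but their mean does not; inactive means Under half of replicates reach the limit.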

Test: inhibitors of cytokine-induced beta cell apoptosis, primary screen, luminescence (AID 435005);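 further: 0% = cytokine-treated negative control wells and 100% = positive control rescue; higher means more ATP so stronger rescue from cytokine killing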
Details: INS-1E cytokine-induced death, ATP luminescence, 48 h; active compounds read high; percent of positive-control rescue, neutral wells zero; concentration not given here

Row | Compound | protection from apoptosis
1 | O=[N+]([O-])c1ncn(CCn2ncnc2[N+](=O)[O-])n1 | inactive: -8.19%
2 | O=C(O)CNc1ccc([As](=O)(O)O)cc1 | inactive: -4.48%
3 | Nc1ccc2c(ccc3cccnc32)n1.O=[N+]([O-])c1cc([N+](=O)[O-])c(O)c([N+](=O)[O-])c1 | inactive: -5.81%
4 | CCOC(=O)c1ccc(NP(C)(=O)Oc2ccc(Cl)cc2)cc1 (configuration not stated) | inactive: 3.28%
5 | O=C(Nc1cc([As](=O)(O)O)ccc1O)c1ccccc1 | inactive: -6.86%
6 | CP(=O)(OC12CC3CC(CC(C3)C1)C2)OC12CC3CC(CC(C3)C1)C2 | inactive: -2.03%
7 | COc1ccccc1OP(C)(=O)Nc1ccccc1Br (configuration not stated) | inactive: 2.15%
8 | Nc1ccc([As](=O)(O)c2ccc(N)cc2)cc1 | inactive: -4.53%
9 | CC(C)(C)c1ccc(OP(C)(=O)O)cc1 | inactive: -6.71%
10 | CCN(/C(=N/P(=O)(N1CCOCC1)N1CCOCC1)N1CCOCC1)c1ccc(OC)cc1 | inactive: 0.761%
11 | CP(=O)(Nc1ccc(Cl)cc1)Oc1ccc(F)cc1 (configuration not stated) | inactive: -7.91%
12 | CC(C)=N/N=C(\N)N[N+](=O)[O-] | inactive: 1.27%
13 | CN(C)C(=O)c1c([N+](=O)[O-])cc([N+](=O)[O-])cc1[N+](=O)[O-] | inactive: -3%
14 | CN(C)C(=O)OCCc1n(C)cc[n+]1C | inactive: 1.02%
15 | CC1CCN(C(=O)Oc2c(Cl)cc(Cl)c3cccnc23)CC1 | inactive: -6.18%
16 | CCN(CC)CC(O)COC(=O)C(O)(c1ccccc1)C1CCCCC1 (configuration not stated) | inactive: 0.339%
17 | COc1ccc(C2=NCC(CBr)S2)cc1 (configuration not stated) | inactive: -5.91%
18 | COc1ccc(OP(C)(=O)Nc2ccc(Br)cc2)cc1 (configuration not stated) | inactive: -11.1%
19 | CC(=O)N1C2C3N(C(C)=O)C1C1N(C(C)=O)C(C(N1C(C)=O)N3C(C)=O)N2C(C)=O | inactive: -17.3%
20 | O=[N+]([O-])c1cccc2n[nH]nc12 | inactive: 9.42%
21 | COc1ccccc1OP(C)(=O)Nc1c(C)n(C)n(-c2ccccc2)c1=O (configuration not stated) | inactive: 3.89%
22 | O=C(OCCCN1CCCC1)C(O)(c1ccccc1)C1CCCCC1 (configuration not stated) | inactive: -1.07%
23 | Cc1ccc(NP(=O)(Oc2ccccc2)Oc2ccccc2)nc1 | inactive: 2.83%
24 | CP(=O)(Oc1ccccc1)N1CCOC1=O (configuration not stated) | inactive: -12.9%
25 | CCc1ccc(OP(C)(=O)Nc2cccnc2)cc1 (configuration not stated) | inactive: 0.392%
26 | O=[N+]([O-])c1cc([N+](=O)[O-])c(CCNc2ccccc2)c([N+](=O)[O-])c1 | inactive: 18.6%
27 | CCc1nc2c(n1)c1c(non1O)c1c2no[n+]1[O-] | inactive: -13.4%
